Measured values taken from ChEMBL document CHEMBL4024754, “Development of Potent, Protease-Resistant Agonists of the Parathyroid Hormone Receptor with Broad β Residue Distribution” (J Med Chem, 2017).
The source made the active and inactive calls. No cut-off for these calls is given here.

Amino acid sequences for entries named in this document (tags omitted). A change or cut given only in a name is not applied to a line headed by its entry.
UniProt Q03431: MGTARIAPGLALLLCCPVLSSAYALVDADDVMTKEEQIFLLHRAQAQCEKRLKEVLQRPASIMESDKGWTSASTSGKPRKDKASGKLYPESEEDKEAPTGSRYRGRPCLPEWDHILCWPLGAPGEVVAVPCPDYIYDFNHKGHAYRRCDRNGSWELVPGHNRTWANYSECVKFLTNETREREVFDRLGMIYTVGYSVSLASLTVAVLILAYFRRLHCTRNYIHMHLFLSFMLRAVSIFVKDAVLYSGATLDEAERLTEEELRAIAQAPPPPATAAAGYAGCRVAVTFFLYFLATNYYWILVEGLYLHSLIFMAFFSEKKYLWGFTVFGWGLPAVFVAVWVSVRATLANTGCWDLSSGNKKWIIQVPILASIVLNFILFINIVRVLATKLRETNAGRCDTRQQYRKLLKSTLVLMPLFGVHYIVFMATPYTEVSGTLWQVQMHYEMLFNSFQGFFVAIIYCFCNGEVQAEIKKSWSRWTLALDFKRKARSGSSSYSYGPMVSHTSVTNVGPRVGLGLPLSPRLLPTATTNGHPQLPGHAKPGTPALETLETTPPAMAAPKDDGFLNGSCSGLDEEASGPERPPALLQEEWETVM

Assays:
[1] = target: Parathyroid hormone/parathyroid hormone-related peptide receptor (Homo sapiens) (UniProt Q03431); assay: Agonist activity at human PTH1 receptor expressed in human GP2.3 cells assessed as induction of cAMP at 0.1 to 100 nM preincubated with simulated intestinal fluid for 45 mins followed by compound transfer to GP2.3 cells by luciferase reporter gene assay; type: functional, cell-based
[2] = target: Parathyroid hormone/parathyroid hormone-related peptide receptor (Homo sapiens) (UniProt Q03431); assay: Agonist activity at human PTH1 receptor expressed in human GP2.3 cells assessed as induction of cAMP at 0.1 to 100 nM preincubated with simulated intestinal fluid for 20 mins followed by compound transfer to GP2.3 cells by luciferase reporter gene assay; type: functional, cell-based

- Activity [1]: Active
- Activity [2]: inactive
Sequence: ABALOPARATIDE
